This note sets out measurements from patent US10189836B2, “Therapeutic compounds, compositions and methods of use thereof” (Genentech, Inc., priority 2015, dated 2019).

Protein sequences, listed by entry. Tags and fused reporters are not part of them. Residues count along the entry.
UniProt O60674, 849-1124: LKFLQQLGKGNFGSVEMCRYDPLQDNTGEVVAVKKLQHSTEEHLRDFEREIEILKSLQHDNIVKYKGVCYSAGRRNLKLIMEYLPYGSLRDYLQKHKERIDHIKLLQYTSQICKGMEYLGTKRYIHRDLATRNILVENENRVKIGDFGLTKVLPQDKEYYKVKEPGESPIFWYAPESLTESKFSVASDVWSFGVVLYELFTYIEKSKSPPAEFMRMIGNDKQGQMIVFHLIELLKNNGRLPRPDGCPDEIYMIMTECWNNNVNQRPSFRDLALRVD
UniProt P23458, 875-1153: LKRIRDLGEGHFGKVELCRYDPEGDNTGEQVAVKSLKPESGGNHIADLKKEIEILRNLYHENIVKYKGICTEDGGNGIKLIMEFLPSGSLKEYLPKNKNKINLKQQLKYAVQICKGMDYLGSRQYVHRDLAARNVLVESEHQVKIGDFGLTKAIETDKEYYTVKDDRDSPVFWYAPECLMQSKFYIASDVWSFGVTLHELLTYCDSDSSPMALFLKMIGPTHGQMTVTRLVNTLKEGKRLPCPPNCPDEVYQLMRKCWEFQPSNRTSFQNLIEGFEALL

In assay [1] the target is isolated recombinant JAK2 kinase domain (Homo sapiens (Human), UniProt O60674). Nature of the assay: JAK2 enzyme assay (Caliper LabChip, Ki). It is filed as biochemical. The following applies: 0.2 nM enzyme, ATP 25 μM.
Assay [2] concerns the target isolated recombinant JAK1 kinase domain (Homo sapiens (Human), UniProt P23458). Nature of the assay: JAK1 enzyme assay (Caliper LabChip, Ki). The format is biochemical. Particulars: 1.5 nM enzyme, ATP 25 μM.

Turning to `CN1CCN(C(=O)Cn2cc(Nc3nc4c(N5C[C@H]6CC[C@@H](C5)[C@H]6NCCC(F)(F)F)cccn4n3)cn2)CC1` [Example 145, 1-(4-methylpiperazin-1-yl)-2-(4-((8-((1R,5 S,8r)-8-((3,3,3-trifluoropropyl)amino)-3-azabicyclo[3.2.1]octan-3-yl)-[1,2,4]triazolo[1,5-a]pyridin-2-yl)amino)-1H-pyrazol-1-yl)ethanone], in assay [1], the Ki (in general, a dissociation constant, usually derived from enzyme kinetics or from competition with a known ligand) worked out at 2.9 nM. In the case of `CN1CCN(C(=O)Cn2cc(Nc3nc4c(N5C[C@H]6CC[C@@H](C5)[C@H]6OCc5cccc(C(=O)N(C)C)c5)cccn4n3)cn2)CC1` [Example 187, N,N-dimethyl-3-[[rac-(1S,5R)-3-[2-[[1-[2-(4-methylpiperazin-1-yl)-2-oxo-ethyl]pyrazol-4-yl]amino]-[1,2,4]triazolo[1,5-a]pyridin-8-yl]-3-azabicyclo[3.2.1]octan-8-yl]oxymethyl]benzamide], the Ki in assay [2] was 0.6 nM; in assay [1], 1.1 nM.

Turning to `COc1ccc(CO[C@H]2[C@@H]3CC[C@H]2CN(c2cccn4nc(Nc5cnn(CC(=O)N6CCN(C)CC6)c5)nc24)C3)cc1` [Example 163, 1-(4-methylpiperazin-1-yl)-2-[4-[[8-[rac-(1S,5R)-8-[(4-methoxyphenyl)methoxy]-3-azabicyclo[3.2.1]octan-3-yl]-[1,2,4]triazolo[1,5-a]pyridin-2-yl]amino]pyrazol-1-yl]ethanone], the Ki in assay [2] and in assay [1] was 0.6 nM each time. Take `CN1CCN(C(=O)Cn2cc(Nc3nc4c(N5C[C@H]6CC[C@@H](C5)[C@H]6OCc5ccncc5)cccn4n3)cn2)CC1` [Example 144, 1-(4-methylpiperazin-1-yl)-2-[4-[[8-[rac-(1S,5R)-8-(4-pyridylmethoxy)-3 - azabicyclo[3.2.1]octan-3-yl]-[1,2,4]triazolo[1,5-a]pyridin-2-yl]amino]pyrazol-1-yl]ethanone]: the Ki in assay [1] is 1.3 nM. Same read-out and setting: the figure for `Cc1ccc(CO[C@H]2[C@@H]3CC[C@H]2CN(c2cccn4nc(Nc5cnn(CC(=O)N6CCN(C)CC6)c5)nc24)C3)cn1` [Example 151, 1-(4-methylpiperazin-1-yl)-2-[4-[[8-[rac-(1S,5R)-8-[(6-methyl-3-pyridyl)methoxy]-3-azabicyclo[3.2.1]octan-3-yl]-[1,2,4]triazolo[1,5-a]pyridin-2-yl]amino]pyrazol-1-yl]ethanone] is 1.2 nM; for `CN1CCN(C(=O)Cn2cc(Nc3nc4c(N5C[C@H]6CC[C@@H](C5)[C@@H]6OCc5ccncc5)cccn4n3)cn2)CC1` [Example 189, 1-(4-methylpiperazin-1-yl)-2-(4-((8-((1R,5 S,8s)-8-(pyridin-4-ylmethoxy)-3-azabicyclo[3.2.1]octan-3-yl)-[1,2,4]triazolo[1,5-a]pyridin-2-yl)amino)-1H-pyrazol-1-yl)ethanone] it is 0.3 nM.
